4 compounds from ChEMBL document CHEMBL1134334, “3-Aryl[1,2,4]triazino[4,3-a]benzimidazol-4(10H)-ones: a new class of selective A1 adenosine receptor antagonists” (J Med Chem, 2001) can be followed below.

Sequences of proteins named here, by UniProt entry; tags and fusion partners are left off.
UniProt P28190, whole entry: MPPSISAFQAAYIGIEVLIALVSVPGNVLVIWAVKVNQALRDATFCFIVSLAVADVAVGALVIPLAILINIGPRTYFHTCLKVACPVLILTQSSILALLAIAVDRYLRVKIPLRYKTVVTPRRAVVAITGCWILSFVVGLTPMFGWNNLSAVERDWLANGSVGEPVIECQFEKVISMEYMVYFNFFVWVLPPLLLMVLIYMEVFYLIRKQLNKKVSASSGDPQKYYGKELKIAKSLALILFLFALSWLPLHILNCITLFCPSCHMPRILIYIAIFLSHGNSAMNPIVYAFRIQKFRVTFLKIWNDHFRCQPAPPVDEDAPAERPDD

In assay [1] the test system is Adenosine receptor A2a (Bos taurus). Description: Displacement of [3H]-CGS- 21680 from adenosine A2a receptor in bovine striatal membrane at 10 uM. Particulars: Striatum. Background: Displacement assays read how much labelled ligand stays bound in the presence of the test substance.
The target in assay [2] is Adenosine receptor A1 (Bos taurus) (UniProt P28190).
The test system of assay [3] is Adenosine receptor A3 (Bos taurus). Description: Displacement of [125 I]AB-MECA from adenosine A3 receptors in bovine cortical membranes at 1 uM.
In assay [4] the target is Adenosine receptor A1 (Bos taurus) (UniProt P28190). Description: GTP shift for Adenosine A1 receptor. Type of assay: functional. The essentials: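 A1 binding in bovine cortical membranes with [3H]DPCPX as radioligand. Run with 1 mM GTP and without GTP, and the GTP shift was taken from comparing the two conditions. Compounds in DMSO, final ≤2%.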
The subject of assay [5] is Adenosine receptor A3 (Bos taurus). Particulars: 1 uM.

In general, inhibition refers to the change of the read-out against control, counted positive when it falls. The low end stands for a weak effect, the high end for a strong effect. In assay [1], `Cn1c2ccccc2n2c(=O)c(-c3ccc(O)c(O)c3)nnc12` registered an inhibition of 32%.
As for `O=c1c(-c2ccccc2)nnc2n(-c3ccccc3)c3ccccc3n12`, the GTPshift in assay [2] was found to be 1. Besides, the inhibition in assay [3] is 2%; in assay [1], 18%.
As to `O=c1c(-c2ccco2)nnc2n(-c3ccccc3)c3ccccc3n12`, the inhibition in assay [1] stood at 56%.
`O=c1c(-c2ccccc2)nnc2n(Cc3ccccc3)c3ccccc3n12`: the GTP shift in assay [4] was determined as 0.8. Besides, the inhibition in assay [5] was 13%; in assay [1], 62%.
